# Test results taken from patent US8501450B2, “Hepatitis C virus variants” (priority 2005, dated 2013).
# Test system: HCV variant mixture in patient plasma
# Assay: Average phenotype for each patient
# Settings: individual subjects; 450 mg; FU (7-10 days after ETR)
structure (smiles),measurement,value
CCC[C@H](NC(=O)[C@@H]1[C@H]2CCC[C@H]2CN1C(=O)[C@@H](NC(=O)[C@@H](NC(=O)c1cnccn1)C1CCCCC1)C(C)(C)C)C(=O)C(=O)NC1CC1 [VX-950],Average Phenotype,6.55
